For this assay, the target named is MBP-BAX 1-166 C62S C126S, biotinylated (Avi tag, 6-histidine tag) (human) (UniProt Q07812). The assay can be described thus: BLI; Octet RED96; biotinylated BCL-2 family proteins (25 nM) immobilised on streptavidin biosensors, designed protein in solution; 10 mM Hepes pH 7.4, 150 mM NaCl, 3 mM EDTA, 0.05% surfactant P20, 0.5% nonfat dry milk; titrations in triplicate, 1:1 binding model. For orientation: BLI is a label-free optical method that tracks binding on a fibre tip over time.

Protein sequences, listed by entry. Tags and fused reporters are not part of them. Residues count along the entry.
UniProt Q07812, 1-166 C62S/C126S: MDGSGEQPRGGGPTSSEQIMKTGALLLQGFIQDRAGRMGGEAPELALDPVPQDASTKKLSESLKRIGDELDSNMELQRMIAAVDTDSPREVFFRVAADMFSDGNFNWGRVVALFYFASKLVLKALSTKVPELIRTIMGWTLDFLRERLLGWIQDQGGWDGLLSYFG

Usually Kd stands for the free concentration of one partner at which half of the binding sites on the other are occupied at equilibrium, for simple one-to-one binding. Low readings indicate higher affinity, high ones lower affinity. In turn, “BAX-CDP01 (BAX-targeting computationally designed protein 01) (designed binder)” had a Kd of 45 nM.
